Earlier results, collected in patent US9669025B2 (INFLAMMATORY RESPONSE RESEARCH, INC., priority 2013, dated 2017).
“Also recorded” adds a separate entry of the source.

Tests used:
[1] = relative to the pure isomer; cited from earlier work
[2] = levocetirizine; cited from earlier work

Structure (SMILES) | sedation profile relative to levocetirizine [1] | time to steady state level (in words) [2]
O=C(O)COCCN1CCN(C(c2ccccc2)c2ccc(Cl)cc2)CC1 (centres unmarked) [cetirizine] | twice | 
O=C(O)COCCN1CCN([C@H](c2ccccc2)c2ccc(Cl)cc2)CC1 [levocetirizine] |  | less than two days; also recorded: within two days
